In ChEMBL document CHEMBL1687710, “Heterocyclic compounds that inhibit Rev-RRE function and human immunodeficiency virus type 1 replication” (Antimicrob Agents Chemother, 2008):

Tested on: Human immunodeficiency virus 1
Experiment: Ratio of EC50 for HIV1 Rev-mediated renilla luciferase expression to TC50 for HIV1 Rev-mediated firefly luciferase expression

## COc1ccc2nc(C(F)(F)F)c(C#N)c(N)c2c1
  Ratio: 10
